The data set deals with the molecule itself. Briefly: multi-angle light scattering; molar mass and hydrodynamic radius of wild-type and R12A proteins, ASTRA 5.3.4; conditions as in refs 32, 58.

B1: wild-type human αA-crystallin (natural protein, UniProt P02489 1-173, looked up)
chain: MDVTIQHPWFKRTLGPFYPSRLFDQFFGEGLFEYDLLPFLSSTISPYYRQSLFRTVLDSGISEVRSDRDKFVIFLDVKHFSPEDLTVKVQDDFVEIHGKHNERQDDHGYISREFHRRYRLPSNVDQSALSCSLSADGMLTFCGPKIQTGLDATHAERAIPVSREEKPTSAPSS
notes: αA-crystallin, human; The reverse primer carries no stop codon; Large oligomer (molar mass about 4.8e5 g/mol by light scattering); also called αAWt; Wt αA-crystallin; source: E. coli BL21(DE3), purified (gel filtration, ion-exchange chromatography)
For B1, the binding result is recorded as “binds”.

(Values after PMC3260246, “Hydroimidazolone Modification of the Conserved Arg12 in Small Heat Shock Proteins: Studies on the Structure and Chaperone Function Using Mutant Mimics” (PLoS ONE, 2012).)
